Results from ChEMBL document CHEMBL5131569, “SAGE-718: A First-in-Class N-Methyl-d-Aspartate Receptor Positive Allosteric Modulator for the Potential Treatment of Cognitive Impairment” (J Med Chem, 2022).

The chains behind the UniProt entries cited, without tags or fusion partners. Where a name states a change or a piece, a line headed by the entry shows the natural chain unless it says otherwise.
UniProt O15399, whole entry, looked up: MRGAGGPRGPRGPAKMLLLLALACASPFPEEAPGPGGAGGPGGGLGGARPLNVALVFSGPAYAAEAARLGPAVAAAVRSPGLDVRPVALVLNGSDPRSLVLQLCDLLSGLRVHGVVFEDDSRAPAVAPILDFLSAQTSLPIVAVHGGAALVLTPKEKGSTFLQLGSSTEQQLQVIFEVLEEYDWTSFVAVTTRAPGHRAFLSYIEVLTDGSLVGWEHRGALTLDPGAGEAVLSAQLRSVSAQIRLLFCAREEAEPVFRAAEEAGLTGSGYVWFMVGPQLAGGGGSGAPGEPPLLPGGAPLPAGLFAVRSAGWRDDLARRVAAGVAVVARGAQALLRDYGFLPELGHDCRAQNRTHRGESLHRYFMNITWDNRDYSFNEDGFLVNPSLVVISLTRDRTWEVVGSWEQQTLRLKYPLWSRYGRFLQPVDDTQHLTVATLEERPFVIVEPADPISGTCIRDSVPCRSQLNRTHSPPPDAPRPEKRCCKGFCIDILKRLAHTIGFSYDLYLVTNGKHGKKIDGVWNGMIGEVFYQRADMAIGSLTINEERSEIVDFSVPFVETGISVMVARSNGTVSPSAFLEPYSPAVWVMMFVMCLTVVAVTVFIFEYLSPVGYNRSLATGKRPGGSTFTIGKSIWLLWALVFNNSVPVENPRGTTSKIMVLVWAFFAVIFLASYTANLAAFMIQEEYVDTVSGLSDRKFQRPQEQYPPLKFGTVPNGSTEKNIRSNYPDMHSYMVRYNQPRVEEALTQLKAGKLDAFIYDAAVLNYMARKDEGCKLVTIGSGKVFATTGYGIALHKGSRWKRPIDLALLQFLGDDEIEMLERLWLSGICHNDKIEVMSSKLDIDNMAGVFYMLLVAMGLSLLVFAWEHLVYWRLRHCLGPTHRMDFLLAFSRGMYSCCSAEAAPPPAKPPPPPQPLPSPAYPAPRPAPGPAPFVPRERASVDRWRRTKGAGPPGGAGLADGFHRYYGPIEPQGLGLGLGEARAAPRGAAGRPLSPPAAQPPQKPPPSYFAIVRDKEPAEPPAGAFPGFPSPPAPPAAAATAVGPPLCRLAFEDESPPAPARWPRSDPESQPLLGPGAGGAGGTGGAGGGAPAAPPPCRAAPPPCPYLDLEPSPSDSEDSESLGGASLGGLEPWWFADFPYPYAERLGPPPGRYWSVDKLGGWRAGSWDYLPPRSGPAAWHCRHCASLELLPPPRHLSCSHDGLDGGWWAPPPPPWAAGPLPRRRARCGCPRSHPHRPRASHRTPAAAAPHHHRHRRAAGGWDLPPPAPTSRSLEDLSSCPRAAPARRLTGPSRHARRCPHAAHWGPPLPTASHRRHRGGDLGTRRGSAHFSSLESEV
UniProt Q14957: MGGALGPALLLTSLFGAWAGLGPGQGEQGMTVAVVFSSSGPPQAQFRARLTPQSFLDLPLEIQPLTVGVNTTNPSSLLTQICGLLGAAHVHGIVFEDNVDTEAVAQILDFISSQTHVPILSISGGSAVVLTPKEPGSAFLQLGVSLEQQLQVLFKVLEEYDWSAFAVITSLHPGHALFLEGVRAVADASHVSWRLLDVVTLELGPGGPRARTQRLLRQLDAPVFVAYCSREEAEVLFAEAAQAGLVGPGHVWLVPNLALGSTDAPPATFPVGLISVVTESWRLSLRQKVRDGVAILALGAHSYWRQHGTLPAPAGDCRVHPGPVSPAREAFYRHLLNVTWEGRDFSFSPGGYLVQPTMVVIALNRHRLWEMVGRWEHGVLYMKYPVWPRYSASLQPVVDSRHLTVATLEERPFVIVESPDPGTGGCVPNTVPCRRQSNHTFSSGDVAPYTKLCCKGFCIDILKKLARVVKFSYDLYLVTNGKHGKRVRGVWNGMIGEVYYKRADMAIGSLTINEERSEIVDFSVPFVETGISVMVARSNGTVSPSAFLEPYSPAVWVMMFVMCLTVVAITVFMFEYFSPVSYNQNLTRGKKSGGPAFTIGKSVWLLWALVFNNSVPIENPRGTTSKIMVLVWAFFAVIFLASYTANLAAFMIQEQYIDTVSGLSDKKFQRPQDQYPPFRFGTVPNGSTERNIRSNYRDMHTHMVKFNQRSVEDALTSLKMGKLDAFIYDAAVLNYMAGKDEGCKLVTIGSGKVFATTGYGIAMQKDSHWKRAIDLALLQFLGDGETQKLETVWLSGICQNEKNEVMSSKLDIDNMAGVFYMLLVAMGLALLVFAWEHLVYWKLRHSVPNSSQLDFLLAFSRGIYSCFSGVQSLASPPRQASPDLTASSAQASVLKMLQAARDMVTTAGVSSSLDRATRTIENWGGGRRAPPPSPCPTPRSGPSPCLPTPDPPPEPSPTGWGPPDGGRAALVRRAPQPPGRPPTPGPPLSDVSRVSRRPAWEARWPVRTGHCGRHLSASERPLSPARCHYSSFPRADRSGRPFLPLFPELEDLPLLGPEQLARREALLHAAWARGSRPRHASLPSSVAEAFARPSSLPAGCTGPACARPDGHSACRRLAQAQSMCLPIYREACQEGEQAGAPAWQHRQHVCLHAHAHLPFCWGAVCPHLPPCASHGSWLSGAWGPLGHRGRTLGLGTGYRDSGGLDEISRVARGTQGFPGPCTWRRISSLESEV

Columns and labels:
[1] = target: Ionotropic glutamate receptor NMDA 1/2D (Homo sapiens) (UniProt Q05586+O15399); test: Positive allosteric modulation of recombinant human GluN1/GluN2D receptor stably expressed in HEK293 cells assessed as increase in glycine/L-glutamate-induced channel current at -70 mV holding potential by whole cell patch clamp method relative to control; assay type: cell-based; details: filed as positive allosteric modulator
[2] = target: Ionotropic glutamate receptor NMDA 1/2C (Homo sapiens, UniProt Q05586+Q14957); test: Positive allosteric modulation of recombinant human GluN1/GluN2C receptor stably expressed in HEK293 cells assessed as increase in glycine/L-glutamate-induced channel current at -70 mV holding potential by whole cell patch clamp method relative to control; assay type: cell-based; details: filed as positive allosteric modulator

SMILES: C[C@H](CC[C@](C)(O)C(F)(F)F)[C@H]1CC[C@H]2[C@@H]3CC=C4C[C@@](C)(O)CC[C@]4(C)[C@H]3CC[C@]12C [DALZANEMDOR]
- Emax [1]: 130%
- Emax [2]: 86%
